Results reported in patent US7375083B2, “Pharmaceutical compositions for prevention of overdose or abuse” (Shire LLC, priority 2003, dated 2008).

Test: Kitchen tests: release of amphetamine by water, acid, base and heat
Conditions: acid (vinegar), base (baking powder and baking soda), heat

| SMILES | Amphetamine released after treatment |
| --- | --- |
| CC(Cc1ccccc1)NC(=O)CNC(=O)CNC(=O)CN (centres unmarked) [Gly3-Amp, 2-Amino-N-({[(1-methyl-2-phenyl-ethylcarbomyl)-methyl]-carbomyl}-methyl)-acetamide] | no amphetamine was detected |
| CC(Cc1ccccc1)NC(=O)C(N)CCCCN [L-lysine-d-amphetamine, 2,6-diaminohexanoic acid-(1-methyl-2-phenylethyl)-amide] | no amphetamine was detected |
